Measurements from patent publication US20170119806A1, “ARYLNAPHTHALENE LACTONE DERIVATIVES AND METHODS OF MAKING AND USING THEREOF” (OHIO STATE INNOVATION FOUNDATION, priority 2014, published 2017).

Amino acid sequences for entries named in this document (tags omitted). A change or cut given only in a name is not applied to a line headed by its entry.
UniProt P11388: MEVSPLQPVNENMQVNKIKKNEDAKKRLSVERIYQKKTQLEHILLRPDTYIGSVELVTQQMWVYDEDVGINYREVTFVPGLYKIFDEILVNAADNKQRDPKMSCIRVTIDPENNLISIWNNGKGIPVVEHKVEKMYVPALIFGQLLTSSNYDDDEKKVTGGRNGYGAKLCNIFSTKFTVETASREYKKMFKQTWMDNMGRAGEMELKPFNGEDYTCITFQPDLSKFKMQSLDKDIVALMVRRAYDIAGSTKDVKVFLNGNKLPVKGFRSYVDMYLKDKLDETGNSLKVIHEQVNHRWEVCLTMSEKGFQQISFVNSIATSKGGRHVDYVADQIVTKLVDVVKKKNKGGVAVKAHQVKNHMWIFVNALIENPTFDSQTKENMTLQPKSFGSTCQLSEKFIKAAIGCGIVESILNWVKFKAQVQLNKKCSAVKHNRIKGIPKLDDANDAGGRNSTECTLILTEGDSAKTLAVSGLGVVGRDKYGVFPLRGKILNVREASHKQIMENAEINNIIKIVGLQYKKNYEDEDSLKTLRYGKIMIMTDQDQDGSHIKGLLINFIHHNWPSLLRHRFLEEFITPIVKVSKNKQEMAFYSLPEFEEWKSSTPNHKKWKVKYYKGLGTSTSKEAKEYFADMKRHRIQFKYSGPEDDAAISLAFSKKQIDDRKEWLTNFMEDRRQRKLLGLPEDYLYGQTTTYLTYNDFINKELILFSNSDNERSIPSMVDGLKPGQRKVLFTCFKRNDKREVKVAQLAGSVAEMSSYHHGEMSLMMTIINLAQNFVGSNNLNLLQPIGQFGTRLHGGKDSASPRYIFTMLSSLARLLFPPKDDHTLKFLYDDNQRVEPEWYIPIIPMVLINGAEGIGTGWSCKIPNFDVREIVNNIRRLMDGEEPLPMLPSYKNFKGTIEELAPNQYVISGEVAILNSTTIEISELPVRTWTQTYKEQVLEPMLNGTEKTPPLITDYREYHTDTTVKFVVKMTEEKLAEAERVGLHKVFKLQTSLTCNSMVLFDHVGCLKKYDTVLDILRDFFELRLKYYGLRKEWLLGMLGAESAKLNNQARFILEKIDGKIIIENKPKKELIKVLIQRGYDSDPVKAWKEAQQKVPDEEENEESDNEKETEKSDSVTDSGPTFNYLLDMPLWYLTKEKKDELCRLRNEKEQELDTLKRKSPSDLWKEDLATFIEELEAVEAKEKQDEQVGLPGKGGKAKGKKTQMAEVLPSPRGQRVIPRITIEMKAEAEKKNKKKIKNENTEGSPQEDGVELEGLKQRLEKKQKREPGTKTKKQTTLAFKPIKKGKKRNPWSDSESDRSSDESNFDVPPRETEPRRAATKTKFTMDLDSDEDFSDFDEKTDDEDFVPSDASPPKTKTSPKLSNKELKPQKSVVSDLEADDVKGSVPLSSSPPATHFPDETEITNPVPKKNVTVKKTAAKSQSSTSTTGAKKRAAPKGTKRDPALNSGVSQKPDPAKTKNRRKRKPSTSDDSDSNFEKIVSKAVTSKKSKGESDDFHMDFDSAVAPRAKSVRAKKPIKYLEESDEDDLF

Target: topo IIα (Homo sapiens, UniProt P11388)
Test: Topoisomerase II assay (DNA cleavage/relaxation)
Type: biochemical
Details: 100 μM test compound
From the text: The formation of linear DNA was detected by separating the SDS-treated reaction products using ethidium bromide gel electrophoresis and quantified by accounting for the relationship between fluorescence and relative band intensity for open circular (OC), linear (LNR), supercoiled (SC), and relaxed (RLX) configurations of DNA.
Topoisomerase II Assay. […] The formation of linear DNA was detected by separating the SDS-treated reaction products using ethidium bromide gel electrophoresis by a modification of a previously described procedure (Hasinoff B B et al. Mol. Pharmacol. 2005, 67, 937-947). In this system, topo II-mediated catalytic conversion of supercoiled pBR322 DNA to the “relaxed” form of plasmic' DNA can also be observed. […] The DNA in the gel was imaged by its fluorescence on a Chemi-Doc XRS+ imager (Bio-Rad, Hercules, Calif.). Linear DNA was quantified by accounting for the relationship between fluorescence and relative band intensity for open circular (QC), linear (LNR), supercoiled (SC), and RLX (relaxed) configurations of DNA (Projan S J et al. Plasmid 1983, 9, 182-190), then calculating % of LNR from the total DNA content in each lane.

Which “topo IIα inhibition (in words)” value does the source give for `COc1cc([C@@H]2c3cc4c(cc3[C@@H](O[C@@H]3O[C@@H]5CO[C@@H](C)O[C@H]5[C@H](O)[C@H]3O)[C@H]3COC(=O)[C@H]23)OCO4)cc(OC)c1O` [etoposide, reference compound] here?
The value was “showed topo Ha inhibitory activity”.
